Assay results taken from ChEMBL document CHEMBL4368907 (J Med Chem, 2019).

Columns and labels:
[1] = biological target: T1, Gastrin/cholecystokinin type B receptor (Homo sapiens, UniProt P32239); assay: Displacement of [125I]-CCK-8 from human CCK2R expressed in human 1321N1 cell membranes after 2 hrs by SPA assay
T1 sequence (P32239 whole entry): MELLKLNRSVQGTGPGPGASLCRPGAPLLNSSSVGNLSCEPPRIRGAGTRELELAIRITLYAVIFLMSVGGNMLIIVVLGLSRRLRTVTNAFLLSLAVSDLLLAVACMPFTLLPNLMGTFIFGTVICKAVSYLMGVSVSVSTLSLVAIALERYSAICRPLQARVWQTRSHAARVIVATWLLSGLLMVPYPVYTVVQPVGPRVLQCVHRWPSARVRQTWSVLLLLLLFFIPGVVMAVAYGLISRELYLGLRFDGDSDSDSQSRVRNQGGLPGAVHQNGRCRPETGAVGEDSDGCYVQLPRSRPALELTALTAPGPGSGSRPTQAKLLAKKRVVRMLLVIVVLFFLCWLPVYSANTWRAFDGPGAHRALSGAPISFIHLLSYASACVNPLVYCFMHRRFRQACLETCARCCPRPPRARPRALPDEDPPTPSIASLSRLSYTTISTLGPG

[2] = biological target: T1, Gastrin/cholecystokinin type B receptor; assay: Agonist activity at human CCK2R expressed in human 1321N1 cells assessed as IP1 accumulation after 1 hr by HTRF assay; type: functional, cell-based

IC50 [1]: 6.61 µM
EC50 [2]: 0.174 µM
SMILES: CSCC[C@H](NC(=O)[C@H](Cc1ccc(OS(=O)(=O)O)cc1)NC(=O)[C@H](CC(=O)O)NC(=O)COCCOCCNC(=O)COCCOCCNC(=O)CC[C@H](NC(=O)CCCCCCCCCCCCCCCCC(=O)O)C(=O)O)C(=O)NCC(=O)N[C@@H](Cc1c[nH]c2ccccc12)C(=O)N[C@@H](CCSC)C(=O)N(C)[C@H](CC(=O)O)C(=O)N(C)[C@@H](Cc1ccccc1)C(N)=O
